Source: patent US4925650A, “Technetium -99m complex for examining the renal function” (Mallinckrodt, Inc., priority 1988, dated 1990)

Key:
[1] = in vivo
[2] = mouse, in vivo

liver activity (in words) [2]: very favorable characteristics
Substance: Tc-99m [LL]-N,N'-bis(1-carboxy-2-mercaptoethyl)ethylenediamine [LL-isomer]
renogram compared with Tc99m-MAG3 (in words) [1]: approximately identical to the renogram obtained with Tc99m-MAG3
